Data published in US20250290928A1, “METHOD, KIT AND DEVICE FOR DETECTING EXTRACELLULAR VESICLES” (priority 2022, published 2025).

Legend:
Assay type in all cases: biochemical, Human
[1] = system: MMP in the MDA-MB-231-derived extracellular vesicles; assay: Evaluation of MMP activity of MDA-MB-231-derived extracellular vesicles with 96-well plate (SensoLyte 520 MMP Substrate Sampler Kit); details: for Fluorescence change after 1 hour of reaction at 30° C.: Example 34, EV 4 μg/mL, reporter 5 μM, buffer (4); for Fluorescence change after 2 hours of reaction at 30° C.: MP, EV 3.3 μg/mL
Experimental: (§1) The concentration of the solution is 8 μg/mL for each of the MDA-MB-231 and A549-derived extracellular vesicles.
(§2) In addition, for detection of MMP activity, 100 μM SB2, SB6, SB7, SB9, SB10, or SB14 of SensoLyte 520 MMP Substrate Sampler Kit (Fluorimetric) AS-71170 was diluted with the buffer (4) to prepare a 10 μM MMP detection solution.
(§3) 50 μL of the MMP detection solution was added to 50 μL of each of the samples, a reaction was performed at 30° C., and MMP activity was evaluated.
The concentration of the MDA-MB-231-derived extracellular vesicles in the solution is 6.7 μg/mL.
In addition, for detection of MMP activity, 1 mM SB2, SB6, SB7, SB9, or SB10 and 1 mM Custom #2T were diluted with the buffer (4) to prepare 10 kinds of MMP detection solutions in which any one of SB2, SB6, SB7, SB9, and SB10 and Custom #2T were each mixed at 10 μM or 2.5 μM.
(§4) 50 μL of each of the MMP detection solutions was added to 50 μL of each of the samples, a reaction was performed at 30° C., and MMP activity was evaluated.

[2] = system: MMP in the A549-derived extracellular vesicles; assay: Evaluation of MMP activity of A549-derived extracellular vesicles with 96-well plate (SensoLyte 520 MMP Substrate Sampler Kit); details: Example 34, EV 4 μg/mL, reporter 5 μM, buffer (4)
Experimental: The MMP14 activity was evaluated with a 96-well plate (manufactured by Thermo Fisher Scientific Inc., model number: 137101). A fluorescence intensity was measured with a fluorescence plate reader (Synergy MX, manufactured by BioTek Instruments, Inc.) at […] every 5 min for 1 hour. For measurement wavelengths, an excitation wavelength of 485±20 nm and a fluorescence wavelength of 528±20 nm were used.
as §1, §2, §3

[3] = system: MMP in the MDA-MB-231-derived extracellular vesicles; assay: Digital detection of MDA-MB-231-derived extracellular vesicles through MMP activity in wells (SB substrates); details: for Expected value λ / Number of positives / Positive ratio: 6 h; for Extracellular vesicle concentration / Expected value λ (×1): Example 35, 6 h; for Extracellular vesicle concentration: at a concentration of x1, 50 fL; for Expected value λ (×1): from power approximation equation
Experimental: The concentration of the solution is 10 μg/mL. […] The solution was further diluted 2-fold to prepare a standard sample at a concentration of x1/4, further diluted 3-fold to prepare a standard sample at a concentration of x1/12, and further diluted 3-fold to prepare a standard sample at a concentration of x1/36. Thus, the standard samples with four concentrations were prepared.
The concentration of the solution is 6.7 μg/mL.
In addition, for detection of MMP activity, 1 mM SB2, SB6, SB7, SB9, or SB10 and 1 mM Custom #2T were diluted with the buffer (4) to prepare 15 kinds of MMP detection solutions in which any one of SB2, SB6, SB7, SB9, and SB10 and Custom #2T were each mixed at 10 μM, 5 μM, or 2.5 μM. In addition, 1 mM Alexa Fluor 647 was used as a standard fluorescent substance, and each of the MMP14 detection solutions contained the standard fluorescent substance at a final concentration of 2 μM.
as §4

[4] = system: MMP in the A549-derived extracellular vesicles; assay: Digital detection of A549-derived extracellular vesicles through MMP activity in wells (SB substrates); details: for Extracellular vesicle concentration: at a concentration of x1, 50 fL; for Expected value λ / Number of positives / Positive ratio: Example 36, EV 5 μg/mL, reporter 5 μM, 30° C.
Experimental: The concentration of the solution is 10 μg/mL.
50 μL of each of the MMP detection solutions was added to 50 μL of the sample to provide a reaction solution for wells.

[5] = Example 35, 30° C., EV 0 (free of extracellular vesicles, pseudopositive)
[6] = Example 35, 30° C., EV 1/4 a.u.
[7] = Example 35, 30° C., EV 1/12 a.u.
[8] = Example 35, 30° C., EV 1/36 a.u.
[9] = Example 35, reporter 5 μM, 30° C., EV 1/2 a.u. (5 μg/mL in reaction solution)

Substance	Fluorescence change after 1 hour of reaction at 30° C. [1]	Fluorescence change after 1 hour of reaction at 30° C. [2]	Expected value λ [3, 5]	Number of positives [3, 5]	Positive ratio [3, 5]	Expected value λ [3, 6]	Number of positives [3, 6]	Positive ratio [3, 6]	Expected value λ [3, 7]	Number of positives [3, 7]	Positive ratio [3, 7]	Expected value λ [3, 8]	Number of positives [3, 8]	Positive ratio [3, 8]	Extracellular vesicle concentration [3] [mL⁻¹]	Expected value λ (×1) [3]	Expected value λ [3, 9]	Number of positives [3, 9]	Positive ratio [3, 9]	Expected value λ (×1) ([4]; Example 36, 4 hr)	further results
QXL520-y-Abu-Pro-Cha-Abu-Smc-His-Ala-Dab(5-FAM)-Ala-Lys-NH2 [SB14]	6,831 ΔRFU	801 ΔRFU	0.000107	3	0.000107	0.04613	1,266	0.04509	0.05674	1,549	0.05516	0.007291	204	0.007265	4.9e+09	0.2451	0.141	3,693	0.1315	0.02127	change in fluorescence intensity by the MDA-MB-231-derived extracellular vesicles relative to the A549-derived extracellular vesicles ([1]; Example 34, Table 19 vs Table 20): less than 10 times; Extracellular vesicle concentration ([4]; Example 36, 4 hr): 4.253e+08 mL⁻¹; Expected value λ (×1) ([4]; Example 36, 24 hr): 0; Extracellular vesicle concentration ([4]; Example 36, 24 hr): 0 mL⁻¹; Expected value λ ([4]; 4 hr): 0.01063; Number of positives ([4]; 4 hr): 297; Positive ratio ([4]; 4 hr): 0.01058; Expected value λ ([4]; 24 hr): 0; Number of positives ([4]; 24 hr): 0; Positive ratio ([4]; 24 hr): 0
QXL520-Pro-Leu-Ala-Tyr-Trp-Ala-Arg-Lys(5-FAM)-NH2 (PLAYWARK; QXL520, 5-FAM, C-terminal amide; printed: Pro-Leu-Ala-Tyr-Trp-Ala-Arg-Lys) [SB10]	36,239 ΔRFU	1,220 ΔRFU	3.56E−05	1	3.56E−05	0.5005	11,057	0.3938	0.1265	3,336	0.1188	0.04927	1,350	0.04808	4.8e+10	2.3991	1.201	19,627	0.699	0.04444	Fluorescence change after 2 hours of reaction at 30° C. ([1]; 1.25 μM with 1.25 μM Custom #2T): 28,057 ΔRFU; Fluorescence change after 2 hours of reaction at 30° C. ([1]; 5 μM with 5 μM Custom #2T): 33,411 ΔRFU; Extracellular vesicle concentration ([4]; Example 36, 4 hr): 8.887e+08 mL⁻¹; Expected value λ (×1) ([4]; Example 36, 24 hr): 0.00422; Extracellular vesicle concentration ([4]; Example 36, 24 hr): 8.437e+07 mL⁻¹; Expected value λ ([4]; 4 hr): 0.02222; Number of positives ([4]; 4 hr): 617; Positive ratio ([4]; 4 hr): 0.02197; Expected value λ ([4]; 24 hr): 0.00211; Number of positives ([4]; 24 hr): 59; Positive ratio ([4]; 24 hr): 0.00211
